A short description of series [1]: Selectivity index, ratio of IC50 for human L02 cells to IC50 for human MDA-MB-231 cells. The format is toxicity. The settings on record: L02 cells versus MDA-MB-231 cells, read-out: Ratio IC50.
Series [2] can be described thus: Selectivity index, ratio of IC50 for human MCF-10A cells to IC50 for human MDA-MB-231 cells. In kind it is toxicity. The settings on record: MCF-10A cells versus MDA-MB-231 cells, read-out: Ratio IC50.
Series [3] is described as follows: Selectivity index, ratio of IC50 for human HeLa cells to IC50 for human MDA-MB-231 cells. In kind it is functional.
Series [4] is described as follows: Selectivity index, ratio of IC50 for human HaCaT cells to IC50 for human MDA-MB-231 cells. The format is toxicity. Conditions: HaCaT cells versus MDA-MB-231 cells, read-out: Ratio IC50.

For `O=C(/C=C/c1ccccc1)Nc1cc(-c2ccnc(N3CCC(CO)CC3)c2)ccn1`, the selectivity ratio in series [1] was found to be 4; in series [2] it was 1160; in series [4], 3.19. Besides, in series [3], the “Ratio IC50” value worked out at 23.25.

(Values after ChEMBL document CHEMBL5321216, “Discovery of bipyridine amide derivatives targeting pRXRα-PLK1 interaction for anticancer therapy” (Eur J Med Chem, 2023).)
